For 75 molecules, inhibition results are on record in PubChem BioAssay AID624267 (The Scripps Research Institute Molecular Screening Center, 2012).

Sequences of proteins named here, by UniProt entry; tags and fusion partners are left off.
UniProt O43353, whole entry, looked up: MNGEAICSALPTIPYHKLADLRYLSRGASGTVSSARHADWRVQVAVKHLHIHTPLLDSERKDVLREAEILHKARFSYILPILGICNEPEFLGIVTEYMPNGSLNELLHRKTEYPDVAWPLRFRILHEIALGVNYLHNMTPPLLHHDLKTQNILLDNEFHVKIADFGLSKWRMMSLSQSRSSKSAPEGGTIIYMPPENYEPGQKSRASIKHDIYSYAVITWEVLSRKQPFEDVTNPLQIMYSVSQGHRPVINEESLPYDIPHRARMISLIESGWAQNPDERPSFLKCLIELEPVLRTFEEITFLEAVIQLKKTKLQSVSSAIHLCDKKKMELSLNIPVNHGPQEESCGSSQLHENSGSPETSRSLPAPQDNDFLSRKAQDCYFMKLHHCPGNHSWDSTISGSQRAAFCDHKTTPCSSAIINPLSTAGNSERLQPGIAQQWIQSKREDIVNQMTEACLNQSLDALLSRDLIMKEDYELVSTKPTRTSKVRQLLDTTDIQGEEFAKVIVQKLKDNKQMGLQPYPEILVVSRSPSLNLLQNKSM

The list shows a part of the results, in another mix than the full data. Active and inactive are the calls of the source. Rule as the data show it: active = inhibition above about 21%; inactive = the rest.

The target of the test is Receptor-interacting serine/threonine-protein kinase 2 (Homo sapiens) (UniProt O43353). Kind of test: inhibitors of RIPK2 association with NOD2 – fluorescence, CHO cells, BLA complementation, primary screen (AID 624267).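 Also: 0% = vehicle only and 100% = reference blocker.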 The note with it: CHO BLA complementation NOD2-RIPK2, CCF4 ratio; at 4.98 µM; active compounds read high.
By inhibition is commonly meant the change of the read-out against control, counted positive when it falls. With `O=P1(N(CCCl)CCCl)OCCC2CCCCN21` (stereo not given), the inhibition is inactive: -13.1%. On to `c1ccc(-c2nn[nH]n2)c(-c2nn[nH]n2)c1`, for which the inhibition was inactive: 2.89%. In the case of `Cc1ccc(NP(=O)(Oc2cccc(C)c2)Oc2cccc(C)c2)nc1` it was inactive: -13.3%; in that of `CCNC(=S)/N=C(\N)N[N+](=O)[O-]`, inactive: 6.37%. Consider `O=C(NC1CCS(=O)(=O)C1)NP(=S)(Oc1ccccc1)Oc1ccccc1` (stereo not given), for which the inhibition was inactive: 5.94%.

With `CC(=O)Nc1ccc([As](=O)(O)O)c(O)c1`, the inhibition was inactive: -2.54%. In the case of `CC(=O)Nc1ccc(Oc2c([N+](=O)[O-])cc([N+](=O)[O-])cc2[N+](=O)[O-])cc1` it was inactive: -1.06%; in that of `Cc1ccccc1CN(C)C(=O)COC(=O)C(O)(c1ccccc1)c1ccccc1`, inactive: -6.28%. For `C[C@H]1OP(=O)(Oc2ccccc2)C[C@@H]2O[C@@H]21` (stereo not given in full), the inhibition is inactive: 0.77%. In the case of `C[C@@H]1C=CCP(=O)(Oc2ccccc2)O1` (stereo not given in full), the inhibition was inactive: 6.56%. With `CC(=O)c1ccc(N2CC2c2ccncc2)cc1` (stereo not given), the inhibition was inactive: -2.89%. In the case of `N#C/C(=C\c1ccc(N(CCBr)CCBr)cc1)C(N)=O`, the inhibition is inactive: 8.31%. In the case of `COC(=O)C1(C)COP(=O)(NCc2ccccc2)OC1` (stereo not given) it was inactive: -11.2%; in that of `CC(C)(C)C(=O)NC(Sc1ccccc1)C(Cl)(Cl)Cl` (stereo not given), inactive: -13.3%; in that of `CCc1cc(O)c([N+](=O)[O-])c(C)c1[N+](=O)[O-]`, inactive: 2.21%.

Consider `O=P1(Nc2nc3ccc(Cl)cc3s2)COc2ccccc2O1` (stereo not given), for which the inhibition is inactive: 3.6%. Turning to `CCOc1ccc(C2=NCC(CBr)S2)cc1` (stereo not given), the inhibition was inactive: -7.27%. Consider `c1nnnn1CCn1cnnn1`, for which the inhibition was inactive: -3.92%. Turning to `CC(C)C(=O)NC(Sc1ccccc1)C(Cl)(Cl)Cl` (stereo not given), the inhibition was inactive: -3.08%. As for `O=P(Nc1nccs1)(c1ccccc1)c1ccccc1`, the inhibition was inactive: 8.78%.

On to `O=C(OC1CN2CCC1CC2)c1cccc(Cl)c1` (stereo not given), for which the inhibition was inactive: -1.62%. Turning to `C(Cc1nn[nH]n1)Cc1nn[nH]n1`, the inhibition was inactive: -3.98%.

With `Nc1ccc([As](=O)(O)c2ccc([N+](=O)[O-])cc2)cc1`, the inhibition was inactive: -3.4%. For the molecule `O=[As](O)(c1ccccc1)c1ccc(O)cc1`, the inhibition is inactive: -12.6%.

Take `O=[N+]([O-])c1ccc(O)c(/C=N/Nc2ccc([N+](=O)[O-])cc2[N+](=O)[O-])c1`: the inhibition is inactive: -1.74%.

Consider `CC(=O)NC(SC(=S)N(C)C)C(Cl)(Cl)Cl` (stereo not given), for which the inhibition is inactive: -9.62%.

Take `O=[N+]([O-])c1ncn(CCn2cnc([N+](=O)[O-])n2)n1`: the inhibition is inactive: -10.1%.

As for `O=P(Nc1nc2ccccc2s1)(c1ccccc1)c1ccccc1`, the inhibition is inactive: -1.48%.

On to `C[C@H]1OP(=O)(Oc2ccccc2)[C@H](O)[C@H](O)[C@H]1N=[N+]=[N-]` (stereo not given in full), for which the inhibition is inactive: -4.64%. `O=P(Nc1ccccn1)(c1ccc(Br)cc1)c1ccc(Br)cc1`: the inhibition was inactive: 3.45%.

As for `CN(C)C1(CNC(=O)c2ccc(Cl)c(S(N)(=O)=O)c2)CCCCC1`, the inhibition is inactive: 8.02%. Then `COc1ccc(N)c([N+](=O)[O-])c1[N+](=O)[O-]`, with inactive: 2.68%; and `Nc1ccc(CCCCOc2ccccc2)cc1`, with inactive: 0.83%. `O=C(O)CNc1ccc([As](=O)(O)O)cc1`: the inhibition is inactive: 2.05%. For the molecule `COC(=O)C1(C)COP(=O)(Nc2ccccc2)OC1` (stereo not given), the inhibition is inactive: -4.35%. On to `O=[N+]([O-])c1cccc(NC2=NCC(CBr)S2)c1` (stereo not given), for which the inhibition is inactive: -7.94%.

In the case of `O=[N+]([O-])c1ncn(CCn2ncnc2[N+](=O)[O-])n1`, the inhibition was inactive: 0.63%. For `CC(C)(C)C(=O)NC(Sc1ccncn1)C(Cl)(Cl)Cl` (stereo not given), the inhibition was inactive: -3.78%. `O=C(Nc1cc([As](=O)(O)O)ccc1O)c1ccccc1`: the inhibition is inactive: -7.24%. Then `O=P1(N(CCCl)CCCl)OCCCS1` (stereo not given), with inactive: -11.4%; and `CC1CCN(C(=O)Oc2c(Cl)cc(Cl)c3cccnc23)CC1`, with inactive: 2.34%; and `c1cc(-c2nn[nH]n2)ccc1-c1nn[nH]n1`, with inactive: -1.75%. Take `CC(C)c1nc(Nc2ccccc2)n(P(=O)(N(C)C)N(C)C)n1`: the inhibition was inactive: -6.86%. In the case of `CC(C)=N/N=C(\N)N[N+](=O)[O-]` it was inactive: 8.06%; in that of `CN(C)C(=O)OCCc1n(C)cc[n+]1C`, inactive: 9.44%; in that of `CCN(/C(=N/P(=O)(N1CCOCC1)N1CCOCC1)N1CCOCC1)c1ccc(OC)cc1`, inactive: -1.19%. Consider `Nc1ccc([As](=O)(O)c2ccc(N)cc2)cc1`, for which the inhibition is inactive: -10.2%. With `C[N+]1=C2C=CC=CC=C2SC12C([N+](=O)[O-])=CC([N+](=O)[O-])=C[C-]2[N+](=O)[O-]` (stereo not given), the inhibition was active: 23.6%. As for `Cc1ccc(NP(=O)(Oc2ccccc2)Oc2ccccc2)nc1`, the inhibition is inactive: 0.95%. Regarding `CCc1nc2c(n1)c1c(non1O)c1c2no[n+]1[O-]`, the inhibition is inactive: 3.39%. In the case of `O=[N+]([O-])c1cc([N+](=O)[O-])c(CCNc2ccccc2)c([N+](=O)[O-])c1` it was inactive: -1.28%; in that of `O=[N+]([O-])c1cccc2n[nH]nc12`, inactive: -9.6%; in that of `CC(=O)N1C2C3N(C(C)=O)C1C1N(C(C)=O)C(C(N1C(C)=O)N3C(C)=O)N2C(C)=O`, inactive: -0.39%.

Regarding `COc1ccc(C2=NCC(CBr)S2)cc1` (stereo not given), the inhibition was inactive: 1.68%.

As to `O=[N+]([O-])C1C(O)C(O)C([N+](=O)[O-])C(O)C1O` (stereo not given), the inhibition was inactive: 0.39%.

Take `Oc1ccccc1CNc1ccccn1`: the inhibition is inactive: -0.04%. In the case of `O=C(NC(Sc1ccncn1)C(Cl)(Cl)Cl)c1ccccc1` (stereo not given) it was inactive: 4.96%; in that of `Nc1cc(N)c2nonc2c1[N+](=O)[O-]`, inactive: 2.41%.

Take `CC(C)CC(=O)NC(Sc1ccc(Cl)cc1)C(Cl)(Cl)Cl` (stereo not given): the inhibition was inactive: -5.64%. As for `CN1CCCC(OC(=O)C(c2ccccc2)c2ccccc2)C1` (stereo not given), the inhibition is inactive: -0.98%. On to `Clc1ccc(Cl)c(NC2=NCC(CBr)S2)c1` (stereo not given), for which the inhibition is inactive: -0.53%. For the molecule `COc1ccccc1OP(=O)(Nc1ccc(C)cn1)Oc1ccccc1OC`, the inhibition is inactive: 0.63%. As for `Cc1ccc(OP(=O)(Nc2nccs2)Oc2ccc(C)cc2)cc1`, the inhibition was inactive: -6.66%. Then `Cc1ccc(N/C(=N/P(=O)(N2CCOCC2)N2CCOCC2)N2CCOCC2)cc1`, with inactive: -0.81%. As to `NC(=O)c1cc([N+](=O)[O-])cc([N+](=O)[O-])c1N`, the inhibition was inactive: -8.03%.

For `Nc1cccc2ccc([As](=O)(O)O)cc12`, the inhibition is inactive: 2.86%. With `CCN(N=Nc1nonc1N)c1nonc1N`, the inhibition is inactive: -3.92%. Then `Cc1cc(SC(NC(=O)c2ccc(F)cc2)C(Cl)(Cl)Cl)ncn1` (stereo not given), with inactive: -1.01%; and `CCOP(=O)(Nc1ccccc1)OCC`, with inactive: -15.2%; and `Cc1ccc(NP(=O)(Oc2ccccc2F)Oc2ccccc2F)nc1`, with inactive: 1.63%. For `O=P(Nc1nc2ccc(Cl)cc2s1)(c1ccccc1)c1ccccc1`, the inhibition was inactive: 2.13%. Regarding `CN(C)P(=O)(N(C)C)n1c(Nc2ccccc2)nnc1-c1ccccc1`, the inhibition was inactive: -1.43%.

`CC(=O)Nc1ccc([As](=O)(O)O)cc1`: the inhibition was inactive: 9.03%. For `O=C(O)c1ccccc1[As](=O)(O)O`, the inhibition is inactive: -5.24%.

Turning to `CCCC1OP(N)(=O)OCC1CC` (stereo not given), the inhibition is inactive: -3.25%.
